Active and inactive are the calls of the source.
Key:
[1] = target: T1, 3-ketoacyl-CoA synthase 17 (Arabidopsis thaliana) (UniProt O65677); experiment: Inhibition of Arbidopsis thaliana C-terminal His-tagged KCS2 expressed in Saccharomyces cerevisiae INVSc1 at 100 uM after 18 to 20 hr by GC/MS analysis
T1 sequence (whole entry): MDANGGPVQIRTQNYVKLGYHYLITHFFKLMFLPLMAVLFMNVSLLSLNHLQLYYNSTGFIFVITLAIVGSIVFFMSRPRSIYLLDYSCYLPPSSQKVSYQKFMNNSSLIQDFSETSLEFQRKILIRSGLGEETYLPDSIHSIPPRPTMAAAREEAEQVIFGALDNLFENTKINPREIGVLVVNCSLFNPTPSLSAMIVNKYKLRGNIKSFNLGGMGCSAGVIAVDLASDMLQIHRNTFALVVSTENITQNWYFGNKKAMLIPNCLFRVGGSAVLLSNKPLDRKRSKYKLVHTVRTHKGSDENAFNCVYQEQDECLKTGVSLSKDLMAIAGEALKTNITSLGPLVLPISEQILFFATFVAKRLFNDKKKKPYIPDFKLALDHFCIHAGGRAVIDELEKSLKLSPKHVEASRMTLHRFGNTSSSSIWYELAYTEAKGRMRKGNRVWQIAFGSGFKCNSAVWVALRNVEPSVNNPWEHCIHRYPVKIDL
Procedure, shortened: (§1)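 pYES2 galactose-inducible constructs in INVSc1, grown at 28°C in uracil-dropout minimal medium with 2% glucose. Log-phase cells were induced in 1% raffinose/2% galactose with herbicide at final 100 μM, in 50-ml culture for 18–20 h, then freeze-dried. FAMEs were made in 1 M methanolic HCl/5% dimethoxypropane at 80°C for 1 h under N2 and run on GC/MS. VLCFA profile was compared with herbicide-free elongase-expressing cells.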

[2] = target: T2, 3-ketoacyl-CoA synthase 1 (Arabidopsis thaliana) (UniProt Q9MAM3); experiment: Inhibition of Arbidopsis thaliana C-terminal His-tagged KCS1 expressed in Saccharomyces cerevisiae INVSc1 at 100 uM after 18 to 20 hr by GC/MS analysis; procedure, shortened: as §1
T2 sequence (whole entry): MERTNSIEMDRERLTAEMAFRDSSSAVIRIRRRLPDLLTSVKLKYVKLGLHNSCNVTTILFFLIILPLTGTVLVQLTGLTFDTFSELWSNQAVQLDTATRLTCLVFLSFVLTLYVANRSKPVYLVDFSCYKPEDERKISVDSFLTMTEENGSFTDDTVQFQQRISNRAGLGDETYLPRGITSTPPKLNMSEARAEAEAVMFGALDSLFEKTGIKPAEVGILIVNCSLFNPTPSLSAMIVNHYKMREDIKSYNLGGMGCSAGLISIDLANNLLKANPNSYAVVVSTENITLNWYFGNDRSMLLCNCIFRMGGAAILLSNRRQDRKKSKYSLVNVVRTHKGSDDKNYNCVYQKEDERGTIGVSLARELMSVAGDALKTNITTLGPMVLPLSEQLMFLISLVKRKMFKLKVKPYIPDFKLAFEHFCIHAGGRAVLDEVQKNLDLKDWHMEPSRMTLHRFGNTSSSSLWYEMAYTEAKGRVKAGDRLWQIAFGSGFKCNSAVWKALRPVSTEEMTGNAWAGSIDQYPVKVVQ

[3] = target: T3, 3-ketoacyl-CoA synthase 18 (Arabidopsis thaliana) (UniProt Q38860); experiment: Inhibition of Arbidopsis thaliana C-terminal His-tagged FAE1 expressed in Saccharomyces cerevisiae INVSc1 at 100 uM after 18 to 20 hr by GC/MS analysis; procedure, shortened: as §1
T3 sequence (whole entry): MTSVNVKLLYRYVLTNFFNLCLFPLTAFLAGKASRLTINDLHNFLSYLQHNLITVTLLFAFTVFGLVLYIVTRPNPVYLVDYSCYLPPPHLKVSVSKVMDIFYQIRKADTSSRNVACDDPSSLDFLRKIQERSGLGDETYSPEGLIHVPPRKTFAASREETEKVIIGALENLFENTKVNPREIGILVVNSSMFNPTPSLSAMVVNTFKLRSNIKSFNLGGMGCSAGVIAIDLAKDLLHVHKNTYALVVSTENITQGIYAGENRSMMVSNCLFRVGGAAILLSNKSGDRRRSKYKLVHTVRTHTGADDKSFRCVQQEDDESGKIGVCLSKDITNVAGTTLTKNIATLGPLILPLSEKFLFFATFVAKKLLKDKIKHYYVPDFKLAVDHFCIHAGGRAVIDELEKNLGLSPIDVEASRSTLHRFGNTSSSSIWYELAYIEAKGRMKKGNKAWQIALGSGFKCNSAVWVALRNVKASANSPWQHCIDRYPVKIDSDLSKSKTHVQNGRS

Arabidopsis thaliana = experiment: Herbicidal activity against Arabidopsis thaliana assessed as apperance of fiddle head phenotype; type: functional, organism-based
[4] = target: T4, 3-ketoacyl-CoA synthase 2 (Arabidopsis thaliana) (UniProt Q5XEP9); experiment: Inhibition of Arbidopsis thaliana C-terminal His-tagged At1g04220 expressed in Saccharomyces cerevisiae INVSc1 at 100 uM after 18 to 20 hr by GC/MS analysis; procedure, shortened: as §1
T4 sequence (whole entry): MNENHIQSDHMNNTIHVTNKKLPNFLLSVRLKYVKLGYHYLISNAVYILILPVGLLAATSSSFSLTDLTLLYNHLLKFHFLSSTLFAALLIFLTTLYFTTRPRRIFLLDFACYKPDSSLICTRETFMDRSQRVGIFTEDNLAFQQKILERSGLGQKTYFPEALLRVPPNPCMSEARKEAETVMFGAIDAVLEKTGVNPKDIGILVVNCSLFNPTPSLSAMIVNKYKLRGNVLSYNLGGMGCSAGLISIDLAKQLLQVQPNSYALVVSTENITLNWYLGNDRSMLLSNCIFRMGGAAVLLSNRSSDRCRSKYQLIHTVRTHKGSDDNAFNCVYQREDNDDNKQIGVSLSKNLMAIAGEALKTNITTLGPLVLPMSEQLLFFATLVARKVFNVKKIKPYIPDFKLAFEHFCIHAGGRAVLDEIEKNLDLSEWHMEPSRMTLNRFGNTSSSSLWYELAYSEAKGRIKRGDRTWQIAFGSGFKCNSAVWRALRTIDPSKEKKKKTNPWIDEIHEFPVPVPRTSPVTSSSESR

[5] = target: T5, 3-ketoacyl-CoA synthase 5 (Arabidopsis thaliana) (UniProt Q9C6L5); experiment: Inhibition of Arbidopsis thaliana C-terminal His-tagged CER60 expressed in Saccharomyces cerevisiae INVSc1 at 100 uM after 18 to 20 hr by GC/MS analysis; procedure, shortened: as §1
T5 sequence (whole entry): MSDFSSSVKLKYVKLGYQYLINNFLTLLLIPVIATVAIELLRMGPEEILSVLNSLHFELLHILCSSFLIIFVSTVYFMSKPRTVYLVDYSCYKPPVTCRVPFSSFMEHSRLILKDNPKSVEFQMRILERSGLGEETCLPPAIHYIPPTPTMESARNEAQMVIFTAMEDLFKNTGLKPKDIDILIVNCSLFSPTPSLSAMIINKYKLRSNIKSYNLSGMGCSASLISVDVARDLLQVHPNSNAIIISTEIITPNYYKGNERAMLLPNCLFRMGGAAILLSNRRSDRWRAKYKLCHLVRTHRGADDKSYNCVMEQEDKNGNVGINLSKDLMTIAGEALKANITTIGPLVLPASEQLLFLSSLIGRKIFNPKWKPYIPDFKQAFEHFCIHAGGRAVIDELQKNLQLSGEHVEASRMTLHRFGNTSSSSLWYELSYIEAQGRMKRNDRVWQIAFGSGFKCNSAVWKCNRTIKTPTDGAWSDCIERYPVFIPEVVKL

[6] = target: T6, 3-ketoacyl-CoA synthase 20 (Arabidopsis thaliana) (UniProt Q9FG87); experiment: Inhibition of Arbidopsis thaliana C-terminal His-tagged At5g43760 expressed in Saccharomyces cerevisiae INVSc1 at 100 uM after 18 to 20 hr by GC/MS analysis; procedure, shortened: as §1
T6 sequence (whole entry): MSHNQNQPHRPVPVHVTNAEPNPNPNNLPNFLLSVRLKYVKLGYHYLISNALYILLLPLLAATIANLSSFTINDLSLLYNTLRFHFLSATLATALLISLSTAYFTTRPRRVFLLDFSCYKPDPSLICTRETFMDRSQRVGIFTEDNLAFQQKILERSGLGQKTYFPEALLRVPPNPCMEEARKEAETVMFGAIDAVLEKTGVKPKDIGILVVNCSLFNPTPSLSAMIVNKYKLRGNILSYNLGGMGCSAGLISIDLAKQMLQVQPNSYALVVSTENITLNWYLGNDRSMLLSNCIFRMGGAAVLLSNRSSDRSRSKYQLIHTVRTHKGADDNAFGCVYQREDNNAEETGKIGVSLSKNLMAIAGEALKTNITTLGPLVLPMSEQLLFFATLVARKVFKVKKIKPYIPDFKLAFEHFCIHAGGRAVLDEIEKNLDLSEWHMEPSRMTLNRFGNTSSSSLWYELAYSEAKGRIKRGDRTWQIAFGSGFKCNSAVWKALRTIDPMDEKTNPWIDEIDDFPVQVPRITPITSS

CC(C)OP(=S)(OC(C)C)SCCNS(=O)(=O)c1ccccc1
inactive: inhibition [1] | inhibition [2] | inhibition [3] | Activity (Arabidopsis thaliana) | inhibition [4] | inhibition [5] | inhibition [6]

From ChEMBL document CHEMBL3045755, “Specific and differential inhibition of very-long-chain fatty acid elongases from Arabidopsis thaliana by different herbicides” (Proc Natl Acad Sci U S A, 2004)
